# Binding of CDR-mutated scFvs to a peptide of the spike HR2 region

From the AlphaSeq antibody data of Engelhart et al. 2022 (doi:10.1038/s41597-022-01779-4), copy in the FLAb collection.

The target is the same throughout: PDVDLGDISGINAS, from the HR2 region of SARS-CoV-2 spike.

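The starting antibody came from a phage panning campaign against this peptide. Library AAYL50 holds single substitutions and randomly drawn double and triple substitutions in the CDRs. The assay is AlphaSeq: two haploid yeast populations carry antibody and antigen on their surface. Mating (16 h, 30 °C) was followed by selection of diploids and sequencing of their barcodes. A regression on co-assayed BCL2-family reference pairs converts the normalised counts of each replicate to an apparent Kd. There are three technical replicates.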

The variants keep the heavy chain, the linker and the frameworks of Ab-14 (scFv order VH, the linker GGGGSGGGGSGGGGS, VL).
VH: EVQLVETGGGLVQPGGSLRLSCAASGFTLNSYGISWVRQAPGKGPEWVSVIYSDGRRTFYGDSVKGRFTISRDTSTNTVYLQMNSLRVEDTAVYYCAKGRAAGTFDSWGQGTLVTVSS
VL: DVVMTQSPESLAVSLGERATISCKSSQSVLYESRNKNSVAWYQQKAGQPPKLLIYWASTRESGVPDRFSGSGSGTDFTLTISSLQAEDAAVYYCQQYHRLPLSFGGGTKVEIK

Substitutions are numbered in sequence along the VL above, starting at 1 (not Kabat). Numbers give log10(Kd / nM), so 0 is 1 nM and 3 is 1 µM. Smaller is tighter. Averages over replicates are reported, and they cover detected replicates only. Where no diploid with the target was found in that replicate, the entry reads "nd": below detection, most likely a poor binder, though not proof of it. In this assay the parent's reference entry averaged 0.65; its copy inside this library read 1.68. As a blank, each scFv also met three strains without target: over library AAYL50, 18% of these pairings were detected, typically at 4.19 and seldom below 2.99. The control count says in how many pairings with the empty strains this scFv gave a signal, with their mean in brackets.

changes	log10 Kd, replicates	mean log10 Kd (nM)	control signals
Q27N A57E S58D	4.02 2.88 3.87	3.59	0 of 9
V29S S33H N35C	nd nd nd	nd	0 of 9
S25E H98C S103Q	2.69 2.58 nd	2.64	0 of 9
S25I R34T N35L	0.40 0.62 0.42	0.48	2 of 9 (3.49)
S25C E61A S62C	0.91 1.12 0.73	0.92	1 of 9 (4.53)
V29N N35S A57E	2.91 2.44 3.21	2.85	2 of 9 (3.90)
S25C W56P Y97W	nd nd nd	nd	2 of 9 (4.25)
S25Q E61W S103E	2.41 2.40 2.64	2.49	5 of 9 (4.65)
N35E Q96T S103T	1.73 1.98 2.11	1.94	2 of 9 (4.09)
N35G V39L S58G	1.07 1.26 1.20	1.17	5 of 9 (4.45)
S26V L30W S38G	3.77 nd nd	3.77	1 of 9 (4.62)
Y31H E32L L100A	nd nd nd	nd	0 of 9
R34W K36P L102T	nd nd nd	nd	0 of 9
V29T R60V L102G	nd 3.04 nd	3.04	0 of 9
E32N S58F T59C	4.00 nd 3.60	3.80	1 of 9 (4.52)
S58L R60N	nd 3.01 4.40	3.71	3 of 9 (3.94)
N37V A40P S62A	nd nd nd	nd	1 of 9 (3.54)
K36S R60A S103K	nd nd nd	nd	0 of 9
V29F P101V	1.85 1.48 1.36	1.56	3 of 9 (3.92)
V39K L100G P101D	nd nd nd	nd	0 of 9
V39N P101C	nd nd nd	nd	0 of 9
L30R R34N A57I	2.08 2.04 2.12	2.08	5 of 9 (4.96)
S28L H98W	nd nd nd	nd	3 of 9 (5.00)
E32W R34W A40C	nd nd nd	nd	2 of 9 (4.68)
N37L H98K L102I	3.97 3.01 2.80	3.26	1 of 9 (2.72)
S33L A57M S58H	4.71 3.70 3.46	3.96	1 of 9 (4.21)
Y97W H98S S103Y	nd nd 2.72	2.72	0 of 9
N35I K36T W56R	2.18 2.20 2.26	2.22	6 of 9 (4.36)
E61G R99A L100N	nd nd nd	nd	0 of 9
S26Q Y97I S103K	nd nd nd	nd	0 of 9
R60V H98G	2.28 1.85 2.54	2.22	1 of 9 (5.53)
Q27M S58E Q96F	1.71 1.54 1.47	1.57	2 of 9 (3.77)
S62E Q96E	1.23 1.49 1.26	1.33	0 of 9
K24N E32S R60E	nd nd 5.36	5.36	2 of 9 (3.38)
S62V Q96I R99G	1.74 1.83 2.13	1.90	2 of 9 (3.67)
R99L L100C L102Q	6.37 nd nd	6.37	1 of 9 (4.35)
N37K Q95S H98A	2.98 2.01 2.40	2.46	1 of 9 (4.99)
K36M P101L S103Y	0.61 0.97 0.86	0.81	2 of 9 (5.32)
L30D W56V S58D	3.63 2.33 3.45	3.14	2 of 9 (3.91)
V29T E32Q Q95G	5.91 3.80 4.04	4.59	2 of 9 (3.74)
Y31D N35Y L100W	0.21 0.46 0.46	0.37	1 of 9 (4.76)
K36F N37A S38D	1.04 1.15 1.22	1.14	1 of 9 (4.02)
S25V S62V R99H	-0.32 0.04 -0.14	-0.14	1 of 9 (3.51)
Y31S N35L R99W	2.96 2.30 2.71	2.66	4 of 9 (4.23)
N37P T59K R60P	nd 4.18 nd	4.18	0 of 9
N37A T59A L102P	nd nd nd	nd	4 of 9 (3.50)
S25C S33L R34P	0.82 0.93 0.82	0.86	5 of 9 (4.79)
W56S R60Y H98E	nd nd nd	nd	0 of 9
Y31R N35P E61I	2.58 2.62 2.59	2.60	1 of 9 (4.46)
S33E S58I	5.95 5.52 nd	5.73	6 of 9 (4.17)